The values that follow come from patent US6863888 (University of California, dated 2005).

This assay deals with T1, c-Jun N-terminal protein kinase (JNK), 46 kD form, endogenous kinase from cell extracts (human, UniProt P45983-2).
T1 construct: Not a purified recombinant protein: kinase activity captured from extracts of Jurkat, HeLa (human), FR3T3 (rat), F9 (mouse), QT6 (quail) and other cells; the tie to the endogenous 46 kD activity is 'homologous or identical'; also called JNK1; 46 kD JNK
The experiment in a line: solid-phase kinase assay, Jurkat whole cell extracts on GST-GSH-agarose beads.

B1: GST (glutathione-S-transferase alone) (other, UniProt P08515 1-218, looked up)
chain: MSPILGYWKIKGLVQPTRLLLEYLEEKYEEHLYERDEGDKWRNKKFELGLEFPNLPYYIDGDVKLTQSMAIIRYIADKHNMLGGCPKERAEISMLEGAVLDIRYGVSRIAYSKDFETLKVDFLSKLPEMLKMFEDRLCHKTYLNGDHVTHPDFMLYDALDVVLYMDPMCLDAFPKLVCFKKRIEAIPQIDKYLKSSKYIAWPLQGWQATFGGGDHPPK
notes: Control protein on GSH-agarose beads; also called GST moiety; GST-GSH-agarose beads
Take B1: the binding result is given as “no binding”.
